Marks after values point to notes of the source that are not given here.
Columns and labels:
[1] = test system: targets incubated with WT1 peptides (EL-4) and WT1 positive tumor cells (TRAMP-C, BLK-SV40); test: CTL from mice immunized with WT1 peptides, chromium release assay; assay type: in vivo, B6 mice
Description: Mice were immunized with the peptides capable of binding to murine class I MHC. Following immunization, spleen cells were stimulated in vitro and tested for the ability to lyse targets incubated with WT1 peptides. CTL were evaluated with a standard chromium release assay (Chen et al., Cancer Res. 54:1065-1070, 1994). 10^6 target cells were incubated at 37° C. with 150 μCi of sodium ^51Cr for 90 minutes, in the presence or absence of specific peptides. Cells were washed three times and resuspended in RPMI with 5% fetal bovine serum. For the assay, 10^4 51Cr-labeled target cells were incubated with different concentrations of effector cells in a final volume of 200 μl in U-bottomed 96-well plates. Supernatants were removed after 4 to 7 hours at 37° C., and the percentage specific lysis was determined by the formula: % specific lysis=100×(experimental release−spontaneous release)/(maximum release−spontaneous release).
P117-139, a peptide with motifs appropriate for binding to class I and class II MHC, was identified as described above using TSITES and BIMAS HLA peptide binding prediction analyses. Mice were immunized as described in Example 3. Following immunization, spleen cells were stimulated in vitro and tested for the ability to lyse targets incubated with WT1 peptides, as well as WT1 positive and negative tumor cells. CTL were evaluated with a standard chromium release assay. […]

[2] = test system: mouse B6 class I antigens (D^b or K^b molecules on the surface of RMA-S cells); test: Peptide binding to C57Bl/6 murine class I MHC using RMA-S cells (flow cytometry); assay type: cell-based; settings: 9-mer peptides within p117-139
Description: Peptide binding to C57BI/6 murine MHC was confirmed using the leukemia cell line RMA-S, as described by Ljunggren et al., Nature 346:476-480, 1990. In brief, RMA-S cells were cultured for 7 hours at 26° C. in complete medium supplemented with 1% FCS. A total of 10^6 RMA-S cells were added into each well of a 24-well plate and incubated either alone or with the designated peptide (25 ug/ml) for 16 hours at 26° C. and additional 3 hours at 37° C. in complete medium. Cells were then washed three times and stained with fluorescein isothiocyanate-conjugated anti D^b or anti-K^b antibody (PharMingen, San Diego, Calif.). Labeled cells were washed twice, resuspended and fixed in 500 ul of PBS with 1% paraformaldehyde and analyzed for fluorescence intensity in a flow cytometer (Becton-Dickinson FACSCALIBUR™). The percentage of increase of D^b or K^b molecules on the surface of the RMA-S cells was measured by increased mean fluorescent intensity of cells incubated with peptide compared with that of cells incubated in medium alone.

Sequence: RMFPNAPYL
- lysis of targets incubated with 9-mer peptide by CTL generated by immunization with p117-139 ([1]; EL-4 pulsed with peptide, E:T 25:1 (FIG. 13A)): lysed targets
- peptide specific lysis after restimulation of the p117-139 specific CTL line with the 9-mer ([1]; FIGS. 13B and 13C): demonstrated peptide specific lysis
- binding to H-2^b class I molecules [2]: bind to H-2^b class I molecules
